How the values were obtained:
[1] = molecular target: T1, vitamin D binding protein (DBP) (Homo sapiens, UniProt P02774); assay: Screening of dissociation buffer components (release reagents) in the 25OHD ELISA; format: biochemical; conditions: component of dissociation buffer
T1 sequence (P02774 17-474): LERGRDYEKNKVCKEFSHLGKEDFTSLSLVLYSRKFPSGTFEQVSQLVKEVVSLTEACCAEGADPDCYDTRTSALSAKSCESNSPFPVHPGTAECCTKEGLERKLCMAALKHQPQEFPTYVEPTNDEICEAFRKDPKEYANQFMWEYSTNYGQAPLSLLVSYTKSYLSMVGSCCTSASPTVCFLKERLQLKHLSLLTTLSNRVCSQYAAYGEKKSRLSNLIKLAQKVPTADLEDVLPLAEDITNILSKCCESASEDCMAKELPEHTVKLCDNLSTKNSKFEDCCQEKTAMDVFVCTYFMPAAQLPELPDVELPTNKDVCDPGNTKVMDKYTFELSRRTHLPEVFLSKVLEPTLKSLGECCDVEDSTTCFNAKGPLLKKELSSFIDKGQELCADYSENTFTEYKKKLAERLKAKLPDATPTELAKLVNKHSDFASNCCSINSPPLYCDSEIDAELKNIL

[2] = format: physicochemical
[3] = molecular target: T1, vitamin D binding protein (DBP); assay: Release of bound 25OHD3 from DBP in serum samples at varied release reagent concentrations (ELISA); format: biochemical; design: human serum containing 20 or 40 ng/mL 25OHD3 were treated with the various dissociation buffers; from tissue; host or cells: human serum; conditions: major release reagents in combination
[4] = molecular target: T1, vitamin D binding protein (DBP); assay: as above; format: biochemical; design: human serum containing 20 or 40 ng/mL 25OHD3 were treated with the various dissociation buffers; from tissue; host or cells: human serum; conditions: for percent inhibition by released 25OHD: reagent at 12% and higher (up to 15%)

optimal concentration for dissociation buffer formulation [3]: about 15%
percent inhibition by released 25OHD ([4]; 20 ng/mL samples): 17%
percent inhibition by released 25OHD ([4]; 40 ng/mL samples): 22%
best percentage of individual release reagent (greatest gains in 25OHD release) ([4]; single release reagent in dissociation buffer): 12%
Substance: 1-ethyl-3-methylpyridinium ethyl sulfate
release of 25OHD from DBP and maintaining 25OHD availability for antibody binding [1]: effective and generally compatible with the assay
stability of dissociation buffer [2]: stable and could be stored at room temperature for weeks with no change in efficacy in the assay
